Test results taken from PubChem BioAssay AID651780 (The Scripps Research Institute Molecular Screening Center, 2012).
The entries are a selection whose mix differs from that of the whole data set. The source made the active and inactive calls. No stated cut-off is given here; in the data, active means inhibition above about 22%; inactive means the rest.

Test: calcium response inhibition in counter-screen line – cell-based, fluorescence, counter-screen for hTAAR1 antagonist project (AID 651780);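 further: CHO-Ga16 host cells stimulated with ATP at an EC80 level; 0% = agonist EC80 plus vehicle and 100% = vehicle without agonist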
Conditions: counterscreen cell line, antagonist mode, at 3 µM, active compounds read high

**Q.** With `Cc1ccccc1OP(=O)(Nc1ccccn1)Oc1ccccc1C` as the compound, how does the inhibition read?
**A.** active: 23.7%
